Source: ChEMBL document CHEMBL1128444 (J Med Chem, 1995)

Sequences of proteins named here, by UniProt entry; tags and fusion partners are left off.
UniProt Q9WTR4, whole entry: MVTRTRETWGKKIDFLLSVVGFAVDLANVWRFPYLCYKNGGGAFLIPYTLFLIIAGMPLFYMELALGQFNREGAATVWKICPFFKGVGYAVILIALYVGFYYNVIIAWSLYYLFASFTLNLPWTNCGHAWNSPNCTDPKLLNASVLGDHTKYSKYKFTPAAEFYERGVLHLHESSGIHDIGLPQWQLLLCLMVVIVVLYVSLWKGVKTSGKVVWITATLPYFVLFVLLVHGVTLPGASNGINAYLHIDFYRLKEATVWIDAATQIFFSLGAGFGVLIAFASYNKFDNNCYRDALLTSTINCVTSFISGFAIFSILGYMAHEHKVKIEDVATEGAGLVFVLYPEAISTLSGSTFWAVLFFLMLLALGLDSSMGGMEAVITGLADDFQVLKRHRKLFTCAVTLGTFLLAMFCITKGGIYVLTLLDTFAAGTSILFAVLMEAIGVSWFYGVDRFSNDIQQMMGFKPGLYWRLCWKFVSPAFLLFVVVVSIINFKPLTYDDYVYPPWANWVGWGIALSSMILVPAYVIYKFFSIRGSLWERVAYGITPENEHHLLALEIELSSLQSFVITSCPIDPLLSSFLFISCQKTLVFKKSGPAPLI
UniProt P23977, whole entry: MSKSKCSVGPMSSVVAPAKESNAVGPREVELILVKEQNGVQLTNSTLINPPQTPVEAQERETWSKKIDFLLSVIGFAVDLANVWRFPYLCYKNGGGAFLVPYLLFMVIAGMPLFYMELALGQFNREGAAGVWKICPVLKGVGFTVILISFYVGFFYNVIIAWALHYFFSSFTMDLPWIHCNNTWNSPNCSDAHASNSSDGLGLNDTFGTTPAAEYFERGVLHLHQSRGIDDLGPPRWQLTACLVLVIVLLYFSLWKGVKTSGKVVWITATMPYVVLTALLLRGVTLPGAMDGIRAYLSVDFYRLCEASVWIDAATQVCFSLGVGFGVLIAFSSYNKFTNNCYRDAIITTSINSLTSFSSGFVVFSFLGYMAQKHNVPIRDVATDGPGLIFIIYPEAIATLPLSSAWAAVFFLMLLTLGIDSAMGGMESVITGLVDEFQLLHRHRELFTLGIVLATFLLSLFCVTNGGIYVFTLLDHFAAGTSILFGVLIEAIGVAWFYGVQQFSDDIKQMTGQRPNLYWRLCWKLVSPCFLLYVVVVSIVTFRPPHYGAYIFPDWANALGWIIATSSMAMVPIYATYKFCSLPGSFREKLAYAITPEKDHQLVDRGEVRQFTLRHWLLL

How the values were obtained:
[1] = molecular target: Norepinephrine transporter (Rattus norvegicus, UniProt Q9WTR4); experiment: Inhibition of [3H]NE uptake by rat frontal cortex Norepinephrine transporter; format: tissue-based
Outline: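 Rat frontal cortex synaptosomes were used at 10 mg/mL tissue with 5 nM final [3H]norepinephrine and 10 μM pargyline in Krebs phosphate buffer, pH 7.4. Incubation was 3 min at 30 °C, followed by filtration and scintillation counting. Nonspecific uptake was defined with 1 μM desipramine. Three or four experiments were run in triplicate, and Ki was derived by Cheng–Prusoff.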

[2] = molecular target: Sodium-dependent dopamine transporter (Rattus norvegicus, UniProt P23977); experiment: Binding affinity at the Dopamine transporter in rat striata by inhibition of 0.5 nM [3H]WIN-35428 binding

Compound | Ki [1] [nM] | IC50 [2] [nM]
COC(=O)[C@H]1[C@@H](OC(=O)c2ccccc2)C[C@@H]2CC[C@H]1N2C [COCAINE] | 161 | 
COC(=O)C1C(c2ccc(Cl)cc2)CC2CCC1N2C (configuration not stated) |  | 1.12
